Laboratory results: patent US20190076436A1, “MACROCYCLIC COMPOUNDS AS ROS1 KINASE INHIBITORS” (Array BioPharma Inc., priority 2017, published 2019)

Sequences of proteins named here, by UniProt entry; tags and fusion partners are left off. Residues count along the entry.
UniProt P08922, 1883-2347 limits assumed: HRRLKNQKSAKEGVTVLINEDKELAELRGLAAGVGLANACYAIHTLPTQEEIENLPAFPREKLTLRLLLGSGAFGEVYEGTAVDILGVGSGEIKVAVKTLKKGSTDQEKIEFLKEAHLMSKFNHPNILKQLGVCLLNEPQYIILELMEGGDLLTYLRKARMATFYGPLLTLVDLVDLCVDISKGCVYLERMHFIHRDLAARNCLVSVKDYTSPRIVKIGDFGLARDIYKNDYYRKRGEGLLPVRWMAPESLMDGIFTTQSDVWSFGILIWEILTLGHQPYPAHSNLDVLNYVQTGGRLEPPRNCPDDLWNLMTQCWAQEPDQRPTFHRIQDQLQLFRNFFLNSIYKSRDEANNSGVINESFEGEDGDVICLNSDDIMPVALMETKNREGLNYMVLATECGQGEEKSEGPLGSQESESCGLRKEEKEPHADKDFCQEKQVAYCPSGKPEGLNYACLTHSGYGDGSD
UniProt P08922, 1883-2347 G2032R limits assumed: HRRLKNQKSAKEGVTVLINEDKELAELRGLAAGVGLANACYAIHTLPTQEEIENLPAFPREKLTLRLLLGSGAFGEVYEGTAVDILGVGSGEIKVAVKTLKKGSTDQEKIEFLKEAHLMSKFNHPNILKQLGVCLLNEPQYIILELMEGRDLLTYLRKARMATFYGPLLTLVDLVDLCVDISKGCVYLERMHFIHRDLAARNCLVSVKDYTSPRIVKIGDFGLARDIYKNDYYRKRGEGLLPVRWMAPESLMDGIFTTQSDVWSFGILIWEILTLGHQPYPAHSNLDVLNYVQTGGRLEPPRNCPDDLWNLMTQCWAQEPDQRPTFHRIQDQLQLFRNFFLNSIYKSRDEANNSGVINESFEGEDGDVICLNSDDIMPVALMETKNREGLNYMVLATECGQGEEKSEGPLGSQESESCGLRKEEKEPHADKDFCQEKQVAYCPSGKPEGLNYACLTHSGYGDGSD
UniProt P08922, 28-2347 L2026M: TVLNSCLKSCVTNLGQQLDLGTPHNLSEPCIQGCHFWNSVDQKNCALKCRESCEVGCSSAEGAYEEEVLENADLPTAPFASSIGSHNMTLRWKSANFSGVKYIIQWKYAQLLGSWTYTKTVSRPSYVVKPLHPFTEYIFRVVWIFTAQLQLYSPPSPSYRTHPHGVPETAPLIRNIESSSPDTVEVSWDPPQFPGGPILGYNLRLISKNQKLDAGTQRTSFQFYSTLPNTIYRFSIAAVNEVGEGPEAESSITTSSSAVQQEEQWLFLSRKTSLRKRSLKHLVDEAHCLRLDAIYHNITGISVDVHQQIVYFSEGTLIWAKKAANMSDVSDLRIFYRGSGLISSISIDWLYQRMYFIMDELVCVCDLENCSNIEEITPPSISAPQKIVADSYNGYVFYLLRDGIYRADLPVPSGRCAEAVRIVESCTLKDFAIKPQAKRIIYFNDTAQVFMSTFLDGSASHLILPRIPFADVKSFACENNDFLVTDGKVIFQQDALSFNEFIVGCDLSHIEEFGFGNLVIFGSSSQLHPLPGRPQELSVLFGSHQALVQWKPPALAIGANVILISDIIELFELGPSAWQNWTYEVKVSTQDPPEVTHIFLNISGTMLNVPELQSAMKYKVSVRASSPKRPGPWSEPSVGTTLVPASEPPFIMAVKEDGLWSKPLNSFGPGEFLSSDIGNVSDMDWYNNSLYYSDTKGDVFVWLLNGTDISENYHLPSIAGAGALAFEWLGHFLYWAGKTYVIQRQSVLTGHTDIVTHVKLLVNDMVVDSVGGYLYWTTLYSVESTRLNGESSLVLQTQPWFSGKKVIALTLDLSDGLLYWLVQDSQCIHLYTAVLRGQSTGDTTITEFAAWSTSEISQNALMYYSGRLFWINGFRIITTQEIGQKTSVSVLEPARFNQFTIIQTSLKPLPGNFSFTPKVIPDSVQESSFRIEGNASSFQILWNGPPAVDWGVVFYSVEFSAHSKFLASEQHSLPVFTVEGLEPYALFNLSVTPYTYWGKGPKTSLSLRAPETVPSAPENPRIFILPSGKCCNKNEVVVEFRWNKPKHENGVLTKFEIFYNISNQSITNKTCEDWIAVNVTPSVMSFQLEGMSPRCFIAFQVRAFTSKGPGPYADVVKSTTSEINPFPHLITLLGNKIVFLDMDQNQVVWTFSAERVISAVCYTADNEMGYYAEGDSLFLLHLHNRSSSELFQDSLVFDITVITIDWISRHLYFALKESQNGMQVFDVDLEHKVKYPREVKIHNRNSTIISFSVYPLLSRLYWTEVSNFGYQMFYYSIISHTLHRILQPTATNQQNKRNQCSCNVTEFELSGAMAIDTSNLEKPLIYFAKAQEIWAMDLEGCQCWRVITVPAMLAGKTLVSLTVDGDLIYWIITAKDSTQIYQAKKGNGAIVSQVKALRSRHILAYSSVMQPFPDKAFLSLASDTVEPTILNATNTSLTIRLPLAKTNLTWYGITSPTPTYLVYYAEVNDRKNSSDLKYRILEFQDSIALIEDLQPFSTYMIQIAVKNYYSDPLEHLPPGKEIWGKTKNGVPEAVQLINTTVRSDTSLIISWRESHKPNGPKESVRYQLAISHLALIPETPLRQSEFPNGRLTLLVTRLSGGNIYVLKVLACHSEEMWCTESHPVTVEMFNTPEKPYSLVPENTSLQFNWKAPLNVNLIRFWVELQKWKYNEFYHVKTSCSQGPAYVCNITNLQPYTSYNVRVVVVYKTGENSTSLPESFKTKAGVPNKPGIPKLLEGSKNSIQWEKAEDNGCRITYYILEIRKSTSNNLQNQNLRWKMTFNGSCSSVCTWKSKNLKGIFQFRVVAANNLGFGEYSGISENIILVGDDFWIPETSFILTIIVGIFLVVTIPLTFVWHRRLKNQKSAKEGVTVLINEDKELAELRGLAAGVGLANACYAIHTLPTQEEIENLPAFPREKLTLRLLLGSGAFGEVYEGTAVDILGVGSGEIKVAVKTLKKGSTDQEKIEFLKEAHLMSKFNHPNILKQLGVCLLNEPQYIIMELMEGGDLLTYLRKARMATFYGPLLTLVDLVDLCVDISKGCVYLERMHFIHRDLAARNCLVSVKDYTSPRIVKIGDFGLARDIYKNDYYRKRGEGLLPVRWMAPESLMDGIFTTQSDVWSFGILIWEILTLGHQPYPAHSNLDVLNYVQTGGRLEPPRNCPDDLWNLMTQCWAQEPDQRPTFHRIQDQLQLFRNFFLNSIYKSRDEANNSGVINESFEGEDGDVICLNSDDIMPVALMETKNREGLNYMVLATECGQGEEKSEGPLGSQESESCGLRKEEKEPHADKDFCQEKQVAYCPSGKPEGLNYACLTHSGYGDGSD
UniProt P08922, 28-2347 D2033N: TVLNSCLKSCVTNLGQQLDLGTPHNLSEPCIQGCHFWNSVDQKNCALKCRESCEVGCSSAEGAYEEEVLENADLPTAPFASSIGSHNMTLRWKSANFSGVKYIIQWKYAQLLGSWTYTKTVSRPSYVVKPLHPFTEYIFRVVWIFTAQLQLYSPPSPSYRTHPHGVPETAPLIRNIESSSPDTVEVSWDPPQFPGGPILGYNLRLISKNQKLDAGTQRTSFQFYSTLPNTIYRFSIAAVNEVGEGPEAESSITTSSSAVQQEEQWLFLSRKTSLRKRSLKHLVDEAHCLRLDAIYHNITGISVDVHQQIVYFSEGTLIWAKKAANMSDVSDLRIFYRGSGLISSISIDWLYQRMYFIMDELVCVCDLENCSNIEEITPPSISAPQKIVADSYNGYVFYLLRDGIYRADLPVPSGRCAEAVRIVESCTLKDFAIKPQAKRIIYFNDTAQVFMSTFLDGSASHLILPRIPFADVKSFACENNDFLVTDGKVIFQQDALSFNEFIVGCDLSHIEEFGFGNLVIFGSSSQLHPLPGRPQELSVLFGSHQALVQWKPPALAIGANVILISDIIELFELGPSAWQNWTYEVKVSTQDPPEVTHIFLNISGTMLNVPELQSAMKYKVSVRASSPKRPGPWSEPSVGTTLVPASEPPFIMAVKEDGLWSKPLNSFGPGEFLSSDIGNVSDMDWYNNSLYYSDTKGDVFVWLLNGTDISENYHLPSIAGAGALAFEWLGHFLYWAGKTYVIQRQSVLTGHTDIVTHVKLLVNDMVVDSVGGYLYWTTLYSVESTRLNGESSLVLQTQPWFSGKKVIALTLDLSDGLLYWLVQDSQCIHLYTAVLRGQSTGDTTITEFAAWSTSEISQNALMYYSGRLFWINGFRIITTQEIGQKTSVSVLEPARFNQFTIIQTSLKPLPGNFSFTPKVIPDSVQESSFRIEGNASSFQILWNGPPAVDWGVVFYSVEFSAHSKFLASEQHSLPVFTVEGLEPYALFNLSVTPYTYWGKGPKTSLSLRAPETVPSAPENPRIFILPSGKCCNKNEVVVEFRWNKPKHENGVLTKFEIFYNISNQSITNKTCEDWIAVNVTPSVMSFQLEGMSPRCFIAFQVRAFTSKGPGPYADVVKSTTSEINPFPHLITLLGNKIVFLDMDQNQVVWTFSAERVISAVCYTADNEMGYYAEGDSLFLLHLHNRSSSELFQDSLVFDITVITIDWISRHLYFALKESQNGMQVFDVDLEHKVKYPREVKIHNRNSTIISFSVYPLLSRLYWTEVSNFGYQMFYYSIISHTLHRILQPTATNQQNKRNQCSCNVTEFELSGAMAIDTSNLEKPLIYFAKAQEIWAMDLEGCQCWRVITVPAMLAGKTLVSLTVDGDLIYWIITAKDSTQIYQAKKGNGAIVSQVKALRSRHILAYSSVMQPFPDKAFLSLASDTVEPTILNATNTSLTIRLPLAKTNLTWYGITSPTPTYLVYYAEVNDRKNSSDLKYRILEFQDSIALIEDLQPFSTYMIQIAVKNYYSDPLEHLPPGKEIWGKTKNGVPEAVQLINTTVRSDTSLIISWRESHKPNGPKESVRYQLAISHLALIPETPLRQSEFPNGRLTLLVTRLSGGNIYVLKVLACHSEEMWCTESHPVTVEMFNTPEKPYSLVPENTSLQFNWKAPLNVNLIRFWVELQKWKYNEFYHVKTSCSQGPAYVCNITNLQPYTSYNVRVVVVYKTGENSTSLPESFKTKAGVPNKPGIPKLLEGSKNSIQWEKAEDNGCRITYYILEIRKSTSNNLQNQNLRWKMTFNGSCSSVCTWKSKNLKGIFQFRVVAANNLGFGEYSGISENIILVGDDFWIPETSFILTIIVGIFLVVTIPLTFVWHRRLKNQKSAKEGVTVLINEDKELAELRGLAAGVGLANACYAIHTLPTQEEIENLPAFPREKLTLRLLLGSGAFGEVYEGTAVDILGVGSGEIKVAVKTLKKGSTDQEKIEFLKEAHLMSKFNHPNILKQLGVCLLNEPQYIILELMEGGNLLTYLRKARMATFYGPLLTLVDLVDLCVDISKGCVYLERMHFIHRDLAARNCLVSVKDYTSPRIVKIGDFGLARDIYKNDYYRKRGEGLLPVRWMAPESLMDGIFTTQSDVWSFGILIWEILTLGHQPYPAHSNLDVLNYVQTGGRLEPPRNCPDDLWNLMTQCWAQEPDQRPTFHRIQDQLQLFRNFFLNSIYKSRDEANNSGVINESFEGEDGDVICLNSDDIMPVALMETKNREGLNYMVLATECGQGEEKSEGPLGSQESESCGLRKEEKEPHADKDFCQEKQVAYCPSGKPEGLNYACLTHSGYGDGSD

Tests used:
Assay type in all cases: biochemical
[1] = molecular target: wild type ROS1 (Homo sapiens, UniProt P08922); assay: Inhibition of wild type ROS1 kinase, CisBio HTRF KinEASE-TK assay; details: read-out: ROS1 wT IC50
Protocol: (§1) The potency of a compound inhibiting wild type and exemplary mutant ROS1 kinases was determined using CisBio's HTRF Kinease-TK assay technology. […] No. […] No. […] Each kinase is incubated with 250 nM TK-substrate biotin (CisBio, Cat. No. 62TKOPEC) and 1 mM ATP along with test compound in a buffer consisting of 25 mM MOPS [pH 7.4], 5 mM MgCl2, 0.005% Triton X-100, and 2% DMSO in a volume of 8 μL. […] After a 1 hour incubation at 22° C., the extent of reaction was determined using a PerkinElmer EnVision multimode plate reader via HTRF dual wavelength detection, and the percent of control (POC) was calculated using a ratiometric emission factor. 100 POC is determined using no test compound and 0 POC is determined in the absence of enzyme.

[2] = molecular target: G2032R ROS1 (Homo sapiens, UniProt P08922, G2032R); assay: Inhibition of G2032R ROS1 kinase, CisBio HTRF KinEASE-TK assay
Protocol: as §1

[3] = molecular target: L2026M ROS1 (Homo sapiens, UniProt P08922, L2026M); assay: Inhibition of L2026M ROS1 kinase, CisBio HTRF KinEASE-TK assay
Protocol: as §1

[4] = molecular target: D2033N ROS1 (Homo sapiens, UniProt P08922, D2033N); assay: Inhibition of D2033N ROS1 kinase, CisBio HTRF KinEASE-TK assay
Protocol: as §1

`C[C@@H]1CCc2ncc(F)cc2[C@H]2CCCN2c2ccn3ncc(c3n2)C(=O)N1` [Compound 33-B, (6R,15R)-9-fluoro-15-methyl-2,11,16,20,21,24-hexaazapentacyclo[16.5.2.0^2,6.0^7,12.0^21,25] pentacosa-1(24),7,9,11,18(25),19,22-heptaen-17-one] showed an IC50 [1] of 2.7 nM, an IC50 [2] of 20.4 nM and an IC50 [3] of 3.6 nM. The IC50 [4] was 0.5 nM.
